Assay results published in EP4834896A1, “QUATERNARY AMMONIUM COMPOUND AND PHARMACEUTICAL USE THEREOF” (dated 2026).

Legend:
SD rats [1] = assay: Pharmacodynamic test (Test Example 1): neuromuscular blockade, sciatic nerve-gastrocnemius muscle tension in anesthetized rats; settings: drug dose causing 95% neuromuscular blockade; male SD rats, injection via jugular vein; non-linear regression of log dose vs % inhibition of muscle tension
Experimental: Samples: Compound 4, Compound 5, Control Compound 1, and Control Compound 2, all prepared in physiological saline.
(§1) SD rats (source: Beijing Hfk Bioscience Co., Ltd), male, weighing 200-350 g before the experiment, maintained under a 12-h light/dark cycle, and housed in SPF conditions.
(§2) • 1) The rats were weighed. Ethyl carbamate was prepared as a 25% urethane solution and injected intraperitoneally at 1 mL/100 g for anesthesia. After the animals lost consciousness and reflexes, each rat was fixed in a prone position on a foam board, and the right hindlimb area was depilated. The trachea and external jugular veins were dissected, followed by tracheal intubation and venous cannulation, respectively, and an artificial ventilator was prepared. • 2) Posterior to the hip joint, an incision was made in the skin over the lateral edge of the femur at the mid-thigh level. Muscles were bluntly dissected using a glass dissecting needle to expose the sciatic nerve. The skin of the lower leg was incised at the ankle joint, the anterior ligament of the ankle joint was transected, and the gastrocnemius muscle was isolated. […] The muscle tension curve was recorded. • 4) After the signals stabilized, different doses of the test compounds were injected via the jugular vein, and the inhibition of muscle tension after administration was recorded. […]

SD rats [2] = assay: Pharmacodynamic test (Test Example 3): neuromuscular blockade, sciatic nerve-gastrocnemius muscle tension in anesthetized rats; settings: drug dose causing 95% neuromuscular blockade; male SD rats, injection via jugular vein; linear regression of log dose vs probit of % inhibition of muscle twitch
Experimental: Samples: Compound 5A, Compound 5B, and Control Compound 3, all prepared in physiological saline.
as §1
as §2, with “doses of different test compounds” for “doses of the test compounds”

histamine release = assay: Histamine release assay (Test Example 5): plasma histamine before and after i.v. administration, LC-MS/MS; settings: rat plasma histamine after / before administration; 20 mg/kg intravenous, blood 1 min after administration; * P < 0.05
Experimental: (§3) Samples: Compound 5B, Compound 15, and Control Compound 3, all prepared in physiological saline.
as §1
• 1) The rats were weighed. Ethyl carbamate was prepared as a 25% urethane solution and injected intraperitoneally at 1 mL/100 g for anesthesia. After the animals lost consciousness and reflexes, each rat was fixed in a prone position on a foam board, and the right hindlimb area was depilated. One jugular vein was cannulated for drug injection, and the other jugular vein was cannulated for blood collection. • 2) After stabilization for 15 min, 0.5 mL of venous blood was collected into an EP tube containing heparinized physiological saline (1 : 9), mixed well, cooled, and centrifuged at 1000 rpm for 10 min at 4°C. 0.2 mL of the upper plasma layer was collected and cryopreserved in dry ice. After stabilization for 15 min, the test drug was injected intravenously at a dose of 20 mg/kg. […] 0.2 mL of the upper plasma layer was collected and cryopreserved in dry ice. • 3) After processing the above plasma samples, the histamine content in the rat plasma before and after administration was determined by LC-MS/MS. […]

SD rats [3] = assay: Pharmacodynamic test (Test Example 4): inhibition of muscle tension at a single dose in anesthetized rats; settings: 0.3 mg/kg via jugular vein, male SD rats, gastrocnemius muscle tension
Experimental: as §3, §1
• 1) The rats were weighed. Ethyl carbamate was prepared as a 25% urethane solution and injected intraperitoneally at 1 mL/100 g for anesthesia. After the animals lost consciousness and reflexes, each rat was fixed in a prone position on a foam board, and the right hindlimb area was depilated. The trachea and external jugular veins were dissected, followed by tracheal intubation and venous cannulation, respectively, and an artificial ventilator was prepared. • 2) Posterior to the hip joint, an incision was made in the skin over the lateral edge of the femur at the mid-thigh level. Muscles were bluntly dissected using a glass dissecting needle to expose the sciatic nerve. The skin of the lower leg was incised at the ankle joint, the anterior ligament of the ankle joint was transected, and the gastrocnemius muscle was isolated. The tendon of the gastrocnemius muscle at the ankle was ligated, and the tendon was transected distal to the ligature. • 3) A biological function experimental system was used to collect and record signals. […]

Row | Structure (SMILES) | ED95 (SD rats [1]) [mg/kg] | ED95 (SD rats [2]) [mg/kg] | Histamine increase fold (histamine release) | Muscle tone inhibition % (SD rats [3]) [%]
1 | COc1ccc(C[C@@H]2c3cc(OC)c(OC)cc3CC[N@@+]2(C)CCCOC(=O)/C=C/C(=O)OCCC[N+](C)(C)Cc2ccccc2)cc1 | 0.93 | – | – | –
2 | COc1ccc(C[C@@H]2c3cc(OC)c(OC)cc3CC[N@@+]2(C)CCCOC(=O)/C=C/C(=O)OCCC[N+]2(Cc3ccc(OC)c(OC)c3)CCOCC2)cc1 | – | 0.56 | About 3.0* | 45.77
